For the experiment, the target named is anabolic plant HPPD (p-hydroxyphenylpyruvate dioxygenase) from maize (Zea mays, UniProt A0A1D6H1G0). In kind it is biochemical. The procedure:
A modified form of the method for measuring catabolic HPPDs from human liver has been described by Lindblad (Lindblad, B. (1971) Clin. Chim. Acta 34, 113-121). End-point measurements are used in this case for detecting ^14C—CO2, which is liberated from ^14C-p-hydroxyphenylpyruvate by the enzymatic activity of HPPD.
To enrich the anabolic HPPD from plant tissues, young etiolated maize plants were homogenized in extraction buffer (20 mM phosphate buffer pH 7.0; 0.14 M KCl; 0.1 mg/ml glutathione and 1% insoluble polyvinylpyrrolidone) for 3×10 seconds, for example in a Waring blender. The extract was filtered (all other isolation steps were carried out at 4° C.) and centrifuged (20 minutes; 10,000 g). The supernatant was subjected to fractional ammonium sulfate precipitation. […] At this stage, it was possible to store the enzyme at −80° C. following dialysis in a suitable buffer, such as, for example, 20 mM phosphate buffer pH 7.0; 0.14 M KCl; 0.1 mg/ml glutathione.
The enzyme assays were performed in 20 ml polyethylene screw-top containers. […]
After preincubation for 5 minutes at 30° C., the reaction was started by injecting 800 μl of ^14C-p-hydroxyphenylpyruvate. The reaction was stopped by injecting 600 μl of 1 N H2SO4, incubation was continued for 15 minutes, and the radioactivity which was liberated was determined on the small filter paper disks in a liquid scintillation counter. […]

Protein sequences, listed by entry. Tags and fused reporters are not part of them.
UniProt A0A1D6H1G0, entry or part of it: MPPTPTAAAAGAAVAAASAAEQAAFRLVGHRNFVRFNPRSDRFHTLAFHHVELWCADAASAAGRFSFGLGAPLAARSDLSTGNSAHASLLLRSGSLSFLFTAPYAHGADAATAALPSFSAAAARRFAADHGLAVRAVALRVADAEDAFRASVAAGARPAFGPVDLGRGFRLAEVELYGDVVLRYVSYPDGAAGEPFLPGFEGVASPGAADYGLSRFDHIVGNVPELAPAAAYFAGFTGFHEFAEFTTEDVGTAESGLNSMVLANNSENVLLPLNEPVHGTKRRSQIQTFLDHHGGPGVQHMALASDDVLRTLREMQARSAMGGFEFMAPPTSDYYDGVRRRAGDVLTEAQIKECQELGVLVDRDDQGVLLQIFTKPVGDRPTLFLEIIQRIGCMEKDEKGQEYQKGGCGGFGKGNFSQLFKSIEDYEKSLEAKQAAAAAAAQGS

Structures are written as SMILES.

Usually IC50 stands for the concentration that inhibits the measured activity by half. For `CS(=O)(=O)c1ccc(C(=O)C2C(=O)CCCC2=O)c(Cl)c1` [SC-0051, 2-(2-chloro-4-methanesulfonylbenzoyl)-1,3-cyclohexanedione], the “Inhibition of HPPD (in words)” value (partially purified maize HPPD, FIG. 2) is reported as “marked inhibition”. For the same compound, the IC50 (read-out: 50% inhibition on the anabolic plant HPPD from maize (IC50 value), under the assay conditions) worked out at 45 nM.

For the origin of these results see US6555714B1, “Inhibitors of hydroxyphenylpyruvate dioxygenase and an assay for identification of inhibitors” (Hoechst Aktiengesellschaft, priority 1993, dated 2003).
